{"sequences": {"note": "By UniProt entry, the sequences of proteins in these tests, tags left out.", "UniProt A0AA82WPC4, entry or part of it": "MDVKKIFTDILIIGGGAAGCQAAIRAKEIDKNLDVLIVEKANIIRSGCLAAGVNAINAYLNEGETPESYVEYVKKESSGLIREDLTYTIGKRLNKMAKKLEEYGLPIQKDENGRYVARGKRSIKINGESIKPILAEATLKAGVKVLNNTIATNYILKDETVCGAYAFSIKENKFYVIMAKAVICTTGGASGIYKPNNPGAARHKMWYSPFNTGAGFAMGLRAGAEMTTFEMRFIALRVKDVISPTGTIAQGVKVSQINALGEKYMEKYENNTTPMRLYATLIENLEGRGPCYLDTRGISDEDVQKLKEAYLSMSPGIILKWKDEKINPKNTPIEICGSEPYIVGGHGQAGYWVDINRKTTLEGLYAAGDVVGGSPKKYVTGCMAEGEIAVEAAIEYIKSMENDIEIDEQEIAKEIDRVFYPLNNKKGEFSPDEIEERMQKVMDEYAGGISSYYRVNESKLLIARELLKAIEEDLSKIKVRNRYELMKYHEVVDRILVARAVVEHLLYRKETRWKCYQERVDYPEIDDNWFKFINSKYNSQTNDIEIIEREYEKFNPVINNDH", "UniProt A0AA82WPC2, entry or part of it": "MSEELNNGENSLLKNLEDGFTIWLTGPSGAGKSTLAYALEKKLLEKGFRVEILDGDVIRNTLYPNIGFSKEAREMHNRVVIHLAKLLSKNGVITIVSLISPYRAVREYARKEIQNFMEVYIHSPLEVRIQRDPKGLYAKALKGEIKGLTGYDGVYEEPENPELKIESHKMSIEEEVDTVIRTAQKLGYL"}, "source": "paper PMC10322725", "about": "“Assimilatory sulfate reduction in the marine methanogen Methanothermococcus thermolithotrophicus” (Nature Microbiology, 2023)", "key": {"MtPAPSR": {"molecular_target": "T1, MtPAPSR (Methanothermococcus thermolithotrophicus, UniProt A0AA82WPC4)", "T1 construct": "alpha and beta co-expressed in E. coli from pET-28a(+) NcoI/BamHI, C-terminal His-tag on alpha, anaerobic purification; alpha2beta2 heterotetramer; with Adenylylsulfate reductase subunit beta (PAPS reductase beta subunit)", "assay": "coupled assay, oxidation of reduced methyl viologen at […] nm", "assay_type": "biochemical"}, "MtAPSK": {"molecular_target": "T2, MtAPSK (Methanothermococcus thermolithotrophicus, UniProt A0AA82WPC2)", "T2 construct": "gene cysC; recombinant in E. coli, codon-optimized gene in pET-28a(+) NdeI/BamHI, HisTrap, tag cleaved if necessary; homodimer", "assay": "coupled NADH oxidation assay with MtATPS, pyrophosphatase, pyruvate kinase/lactate dehydrogenase", "assay_type": "biochemical"}}, "data": [{"smiles": "Nc1ncnc2c1ncn2[C@@H]1O[C@H](COP(=O)(O)OS(=O)(=O)O)[C@@H](O)[C@H]1O", "note": "[APS]", "values": [{"measurement": "coupled assay, oxidation of reduced methyl viologen at 600 nm", "setting": "MtPAPSR", "result": "The specific enzymatic activity with APS as a substrate (that is, removal of MtAPSK)"}, {"measurement": "coupled NADH oxidation assay with MtATPS, pyrophosphatase, pyruvate kinase/lacta", "setting": "MtAPSK", "result": "MtAPSK should be functional, as confirmed by the coupled enzyme assay"}]}]}
